Reference: ChEMBL document CHEMBL3393034, “Discovery of piperidine ethers as selective orexin receptor antagonists (SORAs) inspired by filorexant” (Bioorg Med Chem Lett, 2015)

Chains of the proteins cited; added tags and fusions are not shown.
UniProt O43613, whole entry: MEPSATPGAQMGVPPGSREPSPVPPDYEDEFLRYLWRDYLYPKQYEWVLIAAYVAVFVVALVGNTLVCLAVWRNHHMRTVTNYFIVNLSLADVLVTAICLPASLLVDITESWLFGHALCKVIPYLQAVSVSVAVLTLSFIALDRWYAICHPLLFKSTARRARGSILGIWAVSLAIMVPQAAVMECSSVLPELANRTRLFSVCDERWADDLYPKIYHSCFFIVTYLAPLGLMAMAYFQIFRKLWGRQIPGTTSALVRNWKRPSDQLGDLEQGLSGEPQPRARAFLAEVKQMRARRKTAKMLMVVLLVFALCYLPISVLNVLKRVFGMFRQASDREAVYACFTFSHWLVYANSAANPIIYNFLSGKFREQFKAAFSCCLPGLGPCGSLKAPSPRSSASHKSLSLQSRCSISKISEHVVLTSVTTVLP

Target: Orexin/Hypocretin receptor type 1 (Homo sapiens, UniProt O43613)
Experiment: Antagonist activity at human OX1R by radioligand displacement assay
Method in brief: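 Radioligand-displacement binding assay at the human orexin receptor; affinity expressed as Ki; data for racemates unless otherwise noted.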

- Ki: 10.5 nM
Compound: C[C@@H]1CC[C@@H](Oc2nccc3ccccc23)CN1C(=O)c1ccccc1-n1nccn1 (relative stereo)
